Measurements as given in patent US20100256153A1, “METHODS FOR PREVENTING OR REDUCING RISK OF MORTALITY” (priority 2009, published 2010).

Assays:
[1] = system: subjects of pooled studies; assay: Ischemic serious adverse events (heart or brain related) in pooled studies, Fischer Exact Test analysis (FIG. 12); type: in vivo, human; details: FIG. 12, per 100 comparator
Description: Additional analyses were conducted to determine whether DPP-4 inhibitors have benefits associated with heart attack and stroke-like events. The saxagliptin data was analyzed using criteria similar to two published studies for sitagliptin (Amatruda et. al.) and vildagliptin (Kothney et. al.).
For sitagliptin the number would be 73 and vildagliptin 70. […] All three DPP-4 inhibitors have a “best estimate” (point estimate) that supports a class effect of lowering incidence of heart attack and stroke.

[2] = system: subjects of pooled studies; details: Fischer Exact Test, FIG. 11, per 100 comparator

| SMILES | ischemic SAEs (heart attack or stroke-like events causing death, hospitalization, or near hospitalization), subjects on drug when 100 subjects on comparator had events [1] [subjects] | death, subjects on drug died when 100 subjects on comparator treatment had died (point estimate) [2] [subjects] |
| --- | --- | --- |
| N[C@@H](CC(=O)N1CCn2c(nnc2C(F)(F)F)C1)Cc1cc(F)c(F)cc1F [sitagliptin] | 73 | 55 |
| N#C[C@@H]1CCCN1C(=O)CNC12CC3CC(CC(O)(C3)C1)C2 [vildagliptin] | – | 52 |
